Our source for the IC50 values is US12590088B2 (dated 2026).

The chains behind the UniProt entries cited, without tags or fusion partners. Where a name states a change or a piece, a line headed by the entry shows the natural chain unless it says otherwise.
UniProt O60674: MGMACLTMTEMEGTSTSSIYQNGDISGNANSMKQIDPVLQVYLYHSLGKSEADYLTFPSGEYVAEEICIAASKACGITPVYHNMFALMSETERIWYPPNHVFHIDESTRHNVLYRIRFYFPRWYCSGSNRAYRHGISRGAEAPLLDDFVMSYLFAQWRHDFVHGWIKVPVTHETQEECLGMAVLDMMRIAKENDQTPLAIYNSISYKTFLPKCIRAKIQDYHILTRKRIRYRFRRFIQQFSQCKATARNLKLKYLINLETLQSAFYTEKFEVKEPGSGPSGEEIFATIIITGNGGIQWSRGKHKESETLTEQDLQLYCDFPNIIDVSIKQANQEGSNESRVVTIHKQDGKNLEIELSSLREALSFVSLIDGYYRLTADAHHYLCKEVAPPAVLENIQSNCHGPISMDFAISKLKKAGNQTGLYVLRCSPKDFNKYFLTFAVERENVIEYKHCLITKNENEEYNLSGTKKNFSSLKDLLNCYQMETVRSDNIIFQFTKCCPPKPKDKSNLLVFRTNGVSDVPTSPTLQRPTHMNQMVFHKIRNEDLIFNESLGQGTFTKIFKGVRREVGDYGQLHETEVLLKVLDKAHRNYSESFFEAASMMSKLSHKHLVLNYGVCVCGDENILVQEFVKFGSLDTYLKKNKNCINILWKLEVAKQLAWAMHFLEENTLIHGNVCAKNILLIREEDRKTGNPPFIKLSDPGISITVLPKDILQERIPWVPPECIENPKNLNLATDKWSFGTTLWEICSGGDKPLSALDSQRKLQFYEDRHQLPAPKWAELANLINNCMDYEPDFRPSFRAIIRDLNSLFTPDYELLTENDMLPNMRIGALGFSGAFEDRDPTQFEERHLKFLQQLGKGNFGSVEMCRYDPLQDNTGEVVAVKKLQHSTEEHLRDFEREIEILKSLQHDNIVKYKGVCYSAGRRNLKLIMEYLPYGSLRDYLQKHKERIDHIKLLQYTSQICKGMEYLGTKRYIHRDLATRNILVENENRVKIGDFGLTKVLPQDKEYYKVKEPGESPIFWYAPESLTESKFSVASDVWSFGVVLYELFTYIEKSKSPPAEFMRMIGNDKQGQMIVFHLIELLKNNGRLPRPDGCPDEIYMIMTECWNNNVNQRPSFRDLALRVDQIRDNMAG
UniProt P29597: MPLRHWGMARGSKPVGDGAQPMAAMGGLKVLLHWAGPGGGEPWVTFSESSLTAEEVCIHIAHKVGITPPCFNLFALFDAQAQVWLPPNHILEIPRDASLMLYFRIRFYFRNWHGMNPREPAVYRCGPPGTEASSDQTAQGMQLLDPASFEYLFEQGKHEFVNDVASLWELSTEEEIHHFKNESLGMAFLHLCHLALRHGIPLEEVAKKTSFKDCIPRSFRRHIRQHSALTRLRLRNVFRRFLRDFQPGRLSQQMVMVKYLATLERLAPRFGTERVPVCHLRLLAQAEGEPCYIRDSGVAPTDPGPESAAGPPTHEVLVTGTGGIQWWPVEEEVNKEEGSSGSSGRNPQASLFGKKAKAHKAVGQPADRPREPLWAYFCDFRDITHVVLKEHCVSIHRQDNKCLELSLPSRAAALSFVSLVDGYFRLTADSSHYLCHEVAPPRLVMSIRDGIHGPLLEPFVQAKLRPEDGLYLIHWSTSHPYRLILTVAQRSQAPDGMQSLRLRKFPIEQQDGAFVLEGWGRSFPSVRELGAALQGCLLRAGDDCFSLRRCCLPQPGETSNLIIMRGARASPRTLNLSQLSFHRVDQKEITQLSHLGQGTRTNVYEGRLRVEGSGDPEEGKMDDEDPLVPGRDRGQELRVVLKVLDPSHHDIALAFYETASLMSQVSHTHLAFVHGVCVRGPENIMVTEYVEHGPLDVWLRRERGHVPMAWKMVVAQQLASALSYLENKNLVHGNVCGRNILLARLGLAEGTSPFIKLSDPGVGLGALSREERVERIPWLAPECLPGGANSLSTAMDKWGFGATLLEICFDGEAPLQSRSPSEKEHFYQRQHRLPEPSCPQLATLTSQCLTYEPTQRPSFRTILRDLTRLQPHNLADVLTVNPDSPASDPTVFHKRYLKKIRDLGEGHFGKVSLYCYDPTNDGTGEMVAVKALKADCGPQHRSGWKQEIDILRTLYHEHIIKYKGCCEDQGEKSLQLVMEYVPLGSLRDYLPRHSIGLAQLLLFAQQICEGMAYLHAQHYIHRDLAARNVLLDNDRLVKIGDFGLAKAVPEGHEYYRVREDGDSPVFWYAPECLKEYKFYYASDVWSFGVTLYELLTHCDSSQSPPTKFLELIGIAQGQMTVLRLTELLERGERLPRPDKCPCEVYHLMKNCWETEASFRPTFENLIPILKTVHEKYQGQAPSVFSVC

For one assay, the target named is JAK2 (Homo sapiens, UniProt O60674). Description: JAK2 IC50 measurement.
In a further assay the target is TYK2 (Homo sapiens, UniProt P29597). Description: TYK2 IC50 measurement.

On to `CNC(=O)c1cnc2[nH]ccc2c1N[C@@H]1CCN(Cc2ccc(Cl)cc2)C1` [Compound 15g, (R)-4-((1-(4-Chlorobenzyl)pyrrolidin-3-yl)amino)-N-methyl-1H-pyrrolo[2,3-b]pyridine-5-carboxamide], for which the IC50 – broadly, the concentration at which inhibition is half-maximal – against JAK2 is 444 nM; against TYK2 it was 485 nM.
The corresponding values for `CNC(=O)c1cnc2[nH]ccc2c1N[C@@H]1CCN(Cc2cccc(Cl)c2)C1` [Compound 15f, (R)-4-((1-(3-chlorobenzyl)pyrrolidin-3-yl)amino)-N-methyl-1H-pyrrolo[2,3-b]pyridine-5-carboxamide] are 224 nM and 475 nM.
